Data: ChEMBL document CHEMBL1135047, “Discovery of 5-hydroxyalkyl-4-phenylpyridines as a new class of glucagon receptor antagonists” (Bioorg Med Chem Lett, 2002)

The chains behind the UniProt entries cited, without tags or fusion partners.
UniProt P47871, whole entry: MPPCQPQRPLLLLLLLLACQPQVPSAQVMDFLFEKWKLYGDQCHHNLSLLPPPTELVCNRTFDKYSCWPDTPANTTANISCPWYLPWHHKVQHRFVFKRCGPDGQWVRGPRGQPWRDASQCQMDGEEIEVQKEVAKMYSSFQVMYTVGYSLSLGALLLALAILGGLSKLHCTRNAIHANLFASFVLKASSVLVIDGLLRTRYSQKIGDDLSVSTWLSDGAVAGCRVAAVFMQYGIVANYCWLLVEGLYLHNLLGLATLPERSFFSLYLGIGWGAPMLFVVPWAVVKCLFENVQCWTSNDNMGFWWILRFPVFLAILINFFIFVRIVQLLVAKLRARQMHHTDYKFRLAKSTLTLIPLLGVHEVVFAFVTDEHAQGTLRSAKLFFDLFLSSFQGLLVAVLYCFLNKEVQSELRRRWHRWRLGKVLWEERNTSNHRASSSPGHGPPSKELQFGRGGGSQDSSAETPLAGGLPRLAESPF

biological target: Glucagon receptor (Homo sapiens, UniProt P47871); test: Inhibitory concentration against binding to the human glucagon receptor (hGR)

Row | IC50 [nM] | Structure (SMILES)
1 | 240 | CCCCCCc1c(C(C)C)nc(C(C)C)c(C(C)O)c1-c1ccc(F)cc1 (centres undefined)
2 | 120 | CCCCCCc1c(C(C)C)nc(C(C)C)c([C@@H](C)O)c1-c1ccc(F)cc1 (single isomer, unassigned)
3 | 110 | CCCc1c(C(C)C)nc(C(C)C)c([C@@H](C)O)c1-c1ccc(F)cc1 (single isomer, unassigned)
4 | 220 | CCCc1c(C(C)C)nc(C(C)C)c(C(C)O)c1-c1ccc(F)cc1 (centres undefined)
